Experimental data: ChEMBL document CHEMBL2331117 (J Med Chem, 2013)

Organism: Homo sapiens
Assay: Selectivity ratio of IC50 for PI3Kalpha (unknown origin) to IC50 for mTOR (unknown origin)

Compound: CCc1c(C(=O)N2CCOc3ccc(-c4ccc5nc[nH]c5c4)cc3C2)ccc(S(C)(=O)=O)c1F
- Ratio IC50: > 1000

Compound: Cc1c(C(=O)N2CCOc3ccc(-c4ccc5nc[nH]c5c4)cc3C2)ccc(S(C)(=O)=O)c1F
- Ratio IC50: > 1000
